According to ChEMBL document CHEMBL1221253, “Fragment-based discovery and optimization of BACE1 inhibitors” (Bioorg Med Chem Lett, 2010):
pIC50: −log10 of the molar value.

The chains behind the UniProt entries cited, without tags or fusion partners. Where a name states a change or a piece, a line headed by the entry shows the natural chain unless it says otherwise.
UniProt P56817: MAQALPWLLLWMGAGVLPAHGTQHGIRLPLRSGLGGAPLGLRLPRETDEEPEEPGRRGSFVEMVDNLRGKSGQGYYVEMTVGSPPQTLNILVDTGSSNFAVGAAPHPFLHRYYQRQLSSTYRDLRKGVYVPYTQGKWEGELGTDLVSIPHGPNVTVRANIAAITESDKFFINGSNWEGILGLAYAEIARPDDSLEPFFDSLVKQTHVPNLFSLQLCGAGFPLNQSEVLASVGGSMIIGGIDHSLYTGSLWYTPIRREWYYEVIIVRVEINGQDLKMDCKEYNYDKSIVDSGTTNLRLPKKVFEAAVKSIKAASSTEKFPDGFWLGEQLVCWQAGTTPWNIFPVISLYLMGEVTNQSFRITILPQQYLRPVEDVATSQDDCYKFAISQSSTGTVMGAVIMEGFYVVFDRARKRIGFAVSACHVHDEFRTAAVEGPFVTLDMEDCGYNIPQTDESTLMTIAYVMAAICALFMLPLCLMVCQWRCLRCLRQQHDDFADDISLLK

Tests used:
Beta-secretase 1 [1] = target: T1, Beta-secretase 1 (Homo sapiens, UniProt P56817); assay: Inhibition of human BACE1
Beta-secretase 1 [2] = target: T1, Beta-secretase 1; assay: Inhibition of BACE1 assessed as amyloid beta secretion by cell based assay

Question: Which results are given for `CC[C@@H](CC(=O)NCC1CCCCC1)n1c(N)nc2cc(Cl)ccc21`?
Answer: pIC50 (Beta-secretase 1 [1]): 5.15; pIC50 (Beta-secretase 1 [2]): 5.15
